In this test the target is T1, tankyrase-2 enzyme (Homo sapiens, UniProt Q9H2K2).
T1 construct: purchased BPS Bioscience 80578
In words: Inhibition test of tankyrase-2 enzyme (BPS Bioscience kit). Format: biochemical. As to conditions: tankyrase-2 enzyme 15 ng/well, 25° C. for 1 hour; read-out: IC50 (tankyrase-2 enzyme inhibitory activity).

Chains of the proteins cited; added tags and fusions are not shown. Residues count along the entry.
UniProt Q9H2K2, 849-1166: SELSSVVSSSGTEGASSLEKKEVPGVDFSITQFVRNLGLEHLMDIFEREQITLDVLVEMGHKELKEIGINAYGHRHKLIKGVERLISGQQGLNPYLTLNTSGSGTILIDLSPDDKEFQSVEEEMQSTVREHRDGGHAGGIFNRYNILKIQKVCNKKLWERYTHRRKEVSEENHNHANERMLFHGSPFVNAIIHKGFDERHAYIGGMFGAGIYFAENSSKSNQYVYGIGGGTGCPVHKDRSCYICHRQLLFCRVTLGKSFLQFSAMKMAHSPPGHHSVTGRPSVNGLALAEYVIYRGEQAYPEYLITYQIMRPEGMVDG

SMILES strings stand for the structures.

The term IC50 denotes the concentration at which inhibition is half-maximal. `Cn1ncnc1[C@H]1c2n[nH]c(=O)c3cc(F)cc(c23)N[C@@H]1c1ccc(F)cc1` [BMN-673 (Talazoparib), Talazoparib]: the IC50 was 2.53 nM.

The values above are taken from patent US20240246933A1, “CRYSTALLINE FORM OF TRICYCLIC DERIVATIVE COMPOUND, METHOD FOR PREPARING SAME, AND PHARMACEUTICAL COMPOSITION COMPRISING SAME” (ONCONIC THERAPEUTICS INC., priority 2021, published 2024).
